Test results taken from ChEMBL document CHEMBL3352351 (Bioorg Med Chem, 2014).

How the values were obtained:
Homo sapiens [1] = species on record: Homo sapiens; assay: Selectivity index, ratio of IC50 for KDR (unknown origin) to IC50 for c-Met (unknown origin)
Homo sapiens [2] = species on record: Homo sapiens; assay: Selectivity index, ratio of IC50 for PDGFRbeta (unknown origin) to IC50 for c-Met (unknown origin)

- Ratio IC50 (Homo sapiens [1]): 62.9
- Ratio IC50 (Homo sapiens [2]): 15.6
Structure (SMILES): COc1cc2c(Oc3ccc(NC(=O)c4nnn(-c5ccc(F)cc5)c4C(F)(F)F)cc3F)ccnc2cc1OCCCN1CCCC1
